Literature values as cited in patent US5972639A, “Fluorescence-based assays for measuring cell proliferation” (Irori, priority 1997, dated 1999).

By UniProt entry, the sequences of proteins in these tests, tags left out. Residues count along the entry.
UniProt P00634, 22-471 limits assumed: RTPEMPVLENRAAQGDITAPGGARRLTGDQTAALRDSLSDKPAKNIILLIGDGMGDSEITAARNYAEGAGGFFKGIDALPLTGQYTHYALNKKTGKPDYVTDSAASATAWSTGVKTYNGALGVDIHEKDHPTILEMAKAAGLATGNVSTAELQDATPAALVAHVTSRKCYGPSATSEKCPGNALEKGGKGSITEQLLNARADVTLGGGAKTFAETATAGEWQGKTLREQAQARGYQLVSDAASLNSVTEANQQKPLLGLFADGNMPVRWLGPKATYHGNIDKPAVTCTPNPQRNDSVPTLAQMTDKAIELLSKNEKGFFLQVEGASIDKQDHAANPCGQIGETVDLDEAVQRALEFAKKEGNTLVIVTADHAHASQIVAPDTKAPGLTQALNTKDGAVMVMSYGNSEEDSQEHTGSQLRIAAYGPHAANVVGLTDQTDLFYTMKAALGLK

Columns and labels:
Alkaline phosphatase = details: identical products with alkaline phosphatases from the various sources; cited from earlier work
[1] = tested on: Alkaline phosphatase (intestinal); details: cited from earlier work
[2] = target: Alkaline phosphatase (E. coli) (Escherichia coli, UniProt P00634); details: cited from earlier work
Acid phosphatase = details: identical products with acid phosphatases from the various sources; cited from earlier work
[3] = tested on: Acid phosphatase (potato); details: cited from earlier work

NCCSP(=O)(O)O
Alkaline phosphatase, products identified (Alkaline phosphatase): Cysteamine, ^32 Pi
Cleavage shown by high voltage paper, electrophoresis [1]: Yes
Km [1]: 250 µM
V max [1]: 0.7 × 10^-8 moles of substrate hydrolyzed
Cleavage shown by high voltage paper, electrophoresis [2]: Yes
Km [2]: 94 µM
V max [2]: 4.2 × 10^-8 moles of substrate hydrolyzed
Acid phosphatase, products identified (Acid phosphatase): No cleavage
Cleavage shown by high voltage paper, electrophoresis [3]: No
